Patent US7067658B2, “Pyridino and pyrimidino pyrazinones” (Bristol-Myers Squibb Company, priority 2002, dated 2006)

Protein sequences, listed by entry. Tags and fused reporters are not part of them. Residues count along the entry.
UniProt P34998, 24-415 limits assumed: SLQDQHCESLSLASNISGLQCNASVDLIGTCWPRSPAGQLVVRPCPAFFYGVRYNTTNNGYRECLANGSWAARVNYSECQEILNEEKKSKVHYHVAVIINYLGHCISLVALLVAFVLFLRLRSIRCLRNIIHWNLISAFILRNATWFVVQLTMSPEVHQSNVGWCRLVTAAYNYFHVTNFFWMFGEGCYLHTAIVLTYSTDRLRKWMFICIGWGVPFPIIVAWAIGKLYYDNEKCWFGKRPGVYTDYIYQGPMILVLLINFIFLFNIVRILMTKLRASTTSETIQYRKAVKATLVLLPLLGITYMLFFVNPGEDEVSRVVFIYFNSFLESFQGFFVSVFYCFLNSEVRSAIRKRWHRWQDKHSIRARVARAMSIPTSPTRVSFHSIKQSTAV

Target: cloned human CRF1 receptors (Homo sapiens, UniProt P34998)
Assay: CRF1 receptor binding assay (inhibition of 125I-ovine-CRF binding to membranes of 293EBNA cells transfected with hCRFR1)
Details: read-out: IC50 Range (potency of binding to CRF1 receptor); IC50 ranges as class symbols a-e

IC50 | SMILES
0.01 to 0.1 µM | CCC(C1CC1)n1c(=O)c(C)nc2c(-c3cc(C)c(OC)cc3C)ncnc21 (stereo not drawn)
0.01 to 0.1 µM | COCC(C)n1c(=O)c(C)nc2c(-c3ccc(OC(F)(F)F)cc3Cl)ncnc21 (stereo not drawn)
0.01 to 0.1 µM | Cc1nc2c(-c3ccc(Cl)cc3Cl)ncnc2n(C(C2CC2)C2CC2)c1=O

Same assay, conditions: read-out: IC50 Range* (potency of binding to CRF1 receptor); IC50 ranges as class symbols a-e

IC50 | SMILES
0.001 to 0.01 µM | Cc1nc2c(-c3cc(F)c(N(C)C)cc3Cl)ccnc2n(C(C)C2CC2)c1=O (stereo not drawn)
0.1 to 1 µM | CCCC(C)n1c(=O)c(C)nc2c(-c3ccc(OC(F)(F)F)cc3Cl)ccnc21 (stereo not drawn)
> 1 µM | COCC(C)n1c(=O)c(C)nc2c(-c3cnc(OC)nc3OC)ccnc21 (stereo not drawn)
0.1 to 1 µM | COCC(C)n1c(=O)c(C)nc2c(-c3ccc(OC(F)(F)F)cc3Cl)ccnc21 (stereo not drawn)
0.01 to 0.1 µM | CCC(C1CC1)n1c(=O)c(C)nc2c(-c3ccc(OC(F)(F)F)cc3Cl)ccnc21 (stereo not drawn)
0.01 to 0.1 µM | CCCC(C)n1c(=O)c(C)nc2c(-c3cc(C)c(OC)cc3C)ccnc21 (stereo not drawn)
> 1 µM | CCC(C1CC1)n1c(=O)c(C)nc2c(-c3cnc(OC)nc3OC)ccnc21 (stereo not drawn)

Same assay, conditions: read-out: IC50 Range* (potency of binding to CRF1 receptor); IC50 ranges, class symbols a-e

SMILES | IC50
COCC(C)n1c(=O)c(C)nc2c(-c3ccc(OC)cc3Cl)ncnc21 (stereo not drawn) | 0.1 to 1 µM
CCC(C1CC1)n1c(=O)c(C)nc2c(-c3ccc(OC)nc3C)ncnc21 (stereo not drawn) | 0.1 to 1 µM
COCC(C)n1c(=O)c(C)nc2c(-c3ccc(Cl)cc3Cl)ncnc21 (stereo not drawn) | 0.1 to 1 µM
CCC(COC)n1c(=O)c(C)nc2c(-c3ccc(OC)nc3C)ncnc21 (stereo not drawn) | > 1 µM
COCC(C)n1c(=O)c(C)nc2c(-c3ccc(OC)cc3C)ccnc21 (stereo not drawn) | 0.1 to 1 µM
CCCC(CCC)n1c(=O)c(C)nc2c(-c3ccc(Cl)cc3Cl)ncnc21 | 0.1 to 1 µM
CCC(COC)n1c(=O)c(C)nc2c(-c3ccc(OC)cc3C)ccnc21 (stereo not drawn) | 0.01 to 0.1 µM
COc1ccc(-c2ncnc3c2nc(C)c(=O)n3C(C)C2CC2)c(Cl)c1 (stereo not drawn) | 0.01 to 0.1 µM
COCC(C)n1c(=O)c(C)nc2c(-c3ccc(OC)nc3C)ccnc21 (stereo not drawn) | 0.1 to 1 µM
CCC(C1CC1)n1c(=O)c(C)nc2c(-c3ccc(C(F)(F)F)cc3Cl)ccnc21 (stereo not drawn) | 0.01 to 0.1 µM

Next, values leading:

IC50 | SMILES
0.001 to 0.01 µM | CCC(C1CC1)n1c(=O)c(C)nc2c(-c3cc(F)c(OC)cc3C)ccnc21 (stereo not drawn)
< 0.001 µM | CCC(C1CC1)n1c(=O)c(C)nc2c(-c3ccc(OC)cc3Cl)ccnc21 (stereo not drawn)
0.01 to 0.1 µM | CCC(C1CC1)n1c(=O)c(C)nc2c(-c3ccc(OC)cc3Cl)ncnc21 (stereo not drawn)
0.01 to 0.1 µM | CCC(COC)n1c(=O)c(C)nc2c(-c3ccc(OC)cc3Cl)ccnc21 (stereo not drawn)
0.001 to 0.01 µM | COc1ccc(-c2ccnc3c2nc(C)c(=O)n3C(C)C2CCC2)c(Cl)c1 (stereo not drawn)
0.01 to 0.1 µM | CCC(C1CC1)n1c(=O)c(C)nc2c(-c3ccc(OC)nc3C)ccnc21 (stereo not drawn)
0.01 to 0.1 µM | CCC(C1CCC1)n1c(=O)c(C)nc2c(-c3ccc(OC)cc3C)ccnc21 (stereo not drawn)
0.001 to 0.01 µM | CCC(C1CC1)n1c(=O)c(C)nc2c(-c3ccc(Cl)cc3Cl)ccnc21 (stereo not drawn)
0.001 to 0.01 µM | CCC(COC)n1c(=O)c(C)nc2c(-c3ccc(OC(F)F)cc3Cl)ccnc21 (stereo not drawn)
0.01 to 0.1 µM | CCC(COC)n1c(=O)c(C)nc2c(-c3ccc(C(F)(F)F)cc3Cl)ccnc21 (stereo not drawn)
0.01 to 0.1 µM | COCC(C)n1c(=O)c(C)nc2c(-c3ccc(C(F)(F)F)cc3Cl)ccnc21 (stereo not drawn)
0.01 to 0.1 µM | CCC(C1CC1)n1c(=O)c(C)nc2c(-c3ccc(Cl)cc3Cl)ncnc21 (stereo not drawn)
0.001 to 0.01 µM | CCC(C1CC1)n1c(=O)c(C)nc2c(-c3ccc(OC(F)F)cc3Cl)ccnc21 (stereo not drawn)
0.01 to 0.1 µM | CCC(C1CC1)n1c(=O)c(C)nc2c(-c3ccc(OC)cc3C)ccnc21 (stereo not drawn)
0.01 to 0.1 µM | CCCC(CCC)n1c(=O)c(C)nc2c(-c3ccc(OC)nc3C)ccnc21
0.01 to 0.1 µM | CCC(C1CCC1)n1c(=O)c(C)nc2c(-c3ccc(Cl)cc3Cl)ncnc21 (stereo not drawn)
0.01 to 0.1 µM | COCC(C)n1c(=O)c(C)nc2c(-c3ccc(OC(F)F)cc3Cl)ccnc21 (stereo not drawn)
0.001 to 0.01 µM | COc1ccc(-c2ccnc3c2nc(C)c(=O)n3C(C2CC2)C2CC2)c(C)c1
0.001 to 0.01 µM | CCC(COC)n1c(=O)c(C)nc2c(-c3cc(F)c(OC)cc3C)ccnc21 (stereo not drawn)
